PMC11976700, “Engineering of Conserved Sequence Motif 1 Residues in Halohydrin Dehalogenase HheC Simultaneously Enhances Activity, Stability, and Enantioselectivity” (ACS Catalysis, 2025)

Legend:
Assay in all cases: epoxide ring opening, bromothymol blue pH assay, Hill fit
HheG = HheG (Ilumatobacter coccineus, UniProt A0A6C7EF96); format: biochemical; conditions: read-out: HheG / WT; 2 mM MOPS-SO4 pH 7.0, 22 °C; 100 mM cyclohexene oxide
HheC [1] = biological target: HheC (Agrobacterium tumefaciens, UniProt Q93D82, F12Y); conditions: read-out: HheC / F12Y; 2 mM MOPS-SO4 pH 7.0, 30 °C; 100 mM epichlorohydrin
HheC [2] = biological target: HheC (Agrobacterium tumefaciens, UniProt Q93D82); conditions: read-out: HheC / WT; 2 mM MOPS-SO4 pH 7.0, 30 °C; 100 mM epichlorohydrin

[N-]=[N+]=[N-]
Km (HheG): 38.4 mM | Km (HheC [1]): 49.6 mM | Km (HheC [2]): 17.3 mM
